Test results reported in patent publication US12435090B2, “Compounds, pharmaceutical compositions, and methods of preparing compounds and of their use” (Repare Therapeutics Inc., priority 2021, dated 2025).

Protein sequences, listed by entry. Tags and fused reporters are not part of them.
UniProt Q99640, whole entry: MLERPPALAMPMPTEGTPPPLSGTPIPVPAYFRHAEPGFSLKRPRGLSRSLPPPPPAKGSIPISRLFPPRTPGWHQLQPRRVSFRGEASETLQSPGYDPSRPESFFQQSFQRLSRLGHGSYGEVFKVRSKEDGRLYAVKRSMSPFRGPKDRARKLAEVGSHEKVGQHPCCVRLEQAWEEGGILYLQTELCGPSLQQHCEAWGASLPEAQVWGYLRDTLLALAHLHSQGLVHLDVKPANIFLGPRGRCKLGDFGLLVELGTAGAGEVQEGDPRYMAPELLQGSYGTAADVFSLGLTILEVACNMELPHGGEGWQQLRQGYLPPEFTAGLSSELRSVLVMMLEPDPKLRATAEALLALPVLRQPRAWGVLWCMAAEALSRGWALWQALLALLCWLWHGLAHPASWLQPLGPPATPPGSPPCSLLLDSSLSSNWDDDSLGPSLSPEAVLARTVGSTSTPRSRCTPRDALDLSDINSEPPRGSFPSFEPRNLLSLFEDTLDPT

Target: recombinant human Myt1 (Homo sapiens (Human), UniProt Q99640)
Test: Myt1 enzymatic assay (ADP-Glo kinase assay)
Assay type: biochemical
Conditions: read-out: Myt1 IC50, 18 nM enzyme, 10 uM ATP

Q: Which IC50 does the source give for `Cc1ccc(O)c(C)c1-n1c(N)c(C(N)=O)c2nc(C3(C(F)(F)F)CC3)cnc21` [Compound 199] here?
A: The IC50 was < 10 nM.
